In publication PMC5538626, “Structural and functional analysis of the GABARAP interaction motif (GIM)” (EMBO Reports, 2017):

Assays:
endogenous GABARAP = test: Co-immunoprecipitation of GFP-mCherry-p62/SQSTM1 with endogenous GABARAP, HEK293 cells; type: cell-based; settings: HEK293, basal conditions, anti-RFP beads, Western blot; Fig 5A
Protocol: (§1) Blots were probed for the presence of endogenous GABARAP and LC3B proteins. • 3xFlag‐FIP200 WT, E703V, I705V, E703V/I705V and F702A/I705A were overexpressed in HEK293 cells and immunoprecipitated using anti‐Flag beads and subjected to SDS–PAGE and Western blotting. Blots were probed for the presence of endogenous GABARAP and LC3B proteins. • GFP‐FUNDC1 WT, E19V, L21V, E19V/L21V and Y18A/L21A were overexpressed in HEK293 cells and either treated with vehicle only (DMSO) or 20 μM CCCP for 2 h, lysed and GFP‐FUNDC1 immunoprecipitated using anti‐GFP beads (or anti‐RFP beads as control) and subjected to SDS–PAGE and Western blotting. Blots were probed for the presence of endogenous GABARAP and LC3B proteins.

endogenous LC3B = test: Co-immunoprecipitation of GFP-mCherry-p62/SQSTM1 with endogenous LC3B, HEK293 cells; type: cell-based; settings: HEK293, basal conditions, anti-RFP beads, Western blot, Fig 5A
Protocol: as §1

“p62/SQSTM1‐WT: GFP-mCherry-p62/SQSTM1 WT protein” was tested, and the “interaction of p62/SQSTM1 with endogenous GABARAP” value (endogenous GABARAP) was “weakly”, the “interaction of p62/SQSTM1 with endogenous LC3B” value (endogenous LC3B) was “co‐precipitated with endogenous LC3B” and the “interaction of p62/SQSTM1 with endogenous LC3B” value (endogenous LC3B; listed as p62/QSQTM1) was “clearly shows a preference for LC3 interaction”.
